Experimental data as given in patent US20260384450A1, “MACROCYCLIC AMINOPYRIDINE COMPOUNDS AS EGFR INHIBITORS” (published 2026).
Read-outs that look alike come from different tables or passages of the source.

The chains behind the UniProt entries cited, without tags or fusion partners. Where a name states a change or a piece, a line headed by the entry shows the natural chain unless it says otherwise. A line that says so, or that is headed by a name, gives the form on record, which may keep a tag or linker. Residues count along the entry.
UniProt P00533, 25-1210 limits assumed: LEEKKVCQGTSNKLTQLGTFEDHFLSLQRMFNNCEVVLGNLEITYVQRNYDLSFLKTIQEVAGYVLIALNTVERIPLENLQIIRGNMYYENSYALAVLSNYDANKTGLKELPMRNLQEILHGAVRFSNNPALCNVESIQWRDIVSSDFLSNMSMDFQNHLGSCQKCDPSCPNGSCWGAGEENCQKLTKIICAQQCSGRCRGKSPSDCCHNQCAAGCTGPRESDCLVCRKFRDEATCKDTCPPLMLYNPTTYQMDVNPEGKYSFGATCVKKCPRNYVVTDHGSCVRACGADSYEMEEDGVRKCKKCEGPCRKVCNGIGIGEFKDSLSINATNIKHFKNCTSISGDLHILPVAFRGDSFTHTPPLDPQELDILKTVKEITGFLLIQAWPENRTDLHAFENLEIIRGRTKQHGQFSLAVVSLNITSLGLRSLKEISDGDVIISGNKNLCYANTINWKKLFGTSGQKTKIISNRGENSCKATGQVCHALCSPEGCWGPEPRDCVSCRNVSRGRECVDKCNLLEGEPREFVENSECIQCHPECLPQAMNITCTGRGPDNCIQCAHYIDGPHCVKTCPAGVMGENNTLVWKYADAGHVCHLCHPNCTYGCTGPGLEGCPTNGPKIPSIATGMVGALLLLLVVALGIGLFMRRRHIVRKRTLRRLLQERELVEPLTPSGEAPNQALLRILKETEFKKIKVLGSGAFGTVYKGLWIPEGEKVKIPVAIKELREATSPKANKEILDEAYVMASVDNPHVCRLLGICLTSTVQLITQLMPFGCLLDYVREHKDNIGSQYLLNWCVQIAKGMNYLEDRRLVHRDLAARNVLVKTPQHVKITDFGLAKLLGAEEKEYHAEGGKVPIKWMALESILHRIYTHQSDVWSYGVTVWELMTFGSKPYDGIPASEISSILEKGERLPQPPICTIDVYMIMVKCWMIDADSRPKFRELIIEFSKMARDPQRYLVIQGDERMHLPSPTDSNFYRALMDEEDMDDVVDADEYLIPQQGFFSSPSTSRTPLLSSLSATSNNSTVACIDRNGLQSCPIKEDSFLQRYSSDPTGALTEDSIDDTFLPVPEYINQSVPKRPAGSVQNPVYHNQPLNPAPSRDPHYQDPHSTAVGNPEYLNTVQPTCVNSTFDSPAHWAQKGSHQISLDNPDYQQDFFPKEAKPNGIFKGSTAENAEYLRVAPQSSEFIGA
UniProt P00533, 25-1210 C797S/L858R limits assumed: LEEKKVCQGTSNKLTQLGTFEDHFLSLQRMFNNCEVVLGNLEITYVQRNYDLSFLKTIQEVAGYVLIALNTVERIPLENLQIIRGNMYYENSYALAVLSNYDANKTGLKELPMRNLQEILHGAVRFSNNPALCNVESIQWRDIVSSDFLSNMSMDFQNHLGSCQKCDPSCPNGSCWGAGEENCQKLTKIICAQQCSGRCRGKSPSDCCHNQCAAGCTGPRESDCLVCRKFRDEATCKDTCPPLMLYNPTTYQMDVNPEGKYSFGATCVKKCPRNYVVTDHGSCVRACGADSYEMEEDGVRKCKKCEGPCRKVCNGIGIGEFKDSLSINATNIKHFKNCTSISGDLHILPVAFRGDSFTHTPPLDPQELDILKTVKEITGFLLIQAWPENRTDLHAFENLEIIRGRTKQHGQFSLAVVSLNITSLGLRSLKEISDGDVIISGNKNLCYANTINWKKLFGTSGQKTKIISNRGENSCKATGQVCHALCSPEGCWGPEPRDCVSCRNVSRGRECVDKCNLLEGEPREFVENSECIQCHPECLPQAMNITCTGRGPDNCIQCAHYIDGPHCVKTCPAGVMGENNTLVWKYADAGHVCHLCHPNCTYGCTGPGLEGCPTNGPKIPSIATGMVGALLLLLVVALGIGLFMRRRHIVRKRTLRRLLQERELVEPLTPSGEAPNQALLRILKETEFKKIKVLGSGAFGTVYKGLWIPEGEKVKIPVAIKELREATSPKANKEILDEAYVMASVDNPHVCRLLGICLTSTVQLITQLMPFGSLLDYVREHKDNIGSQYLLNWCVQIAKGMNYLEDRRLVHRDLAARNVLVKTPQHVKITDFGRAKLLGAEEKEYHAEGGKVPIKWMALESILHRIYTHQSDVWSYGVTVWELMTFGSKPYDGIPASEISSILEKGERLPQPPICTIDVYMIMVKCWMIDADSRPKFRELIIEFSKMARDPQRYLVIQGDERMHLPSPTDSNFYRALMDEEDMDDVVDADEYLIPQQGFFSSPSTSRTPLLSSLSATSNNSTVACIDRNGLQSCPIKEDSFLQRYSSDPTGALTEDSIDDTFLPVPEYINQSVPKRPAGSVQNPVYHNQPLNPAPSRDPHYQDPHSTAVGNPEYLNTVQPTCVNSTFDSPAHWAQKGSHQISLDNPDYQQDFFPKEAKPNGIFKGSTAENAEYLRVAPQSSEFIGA
UniProt P00533, 25-1210 T790M/C797S/L858R limits assumed: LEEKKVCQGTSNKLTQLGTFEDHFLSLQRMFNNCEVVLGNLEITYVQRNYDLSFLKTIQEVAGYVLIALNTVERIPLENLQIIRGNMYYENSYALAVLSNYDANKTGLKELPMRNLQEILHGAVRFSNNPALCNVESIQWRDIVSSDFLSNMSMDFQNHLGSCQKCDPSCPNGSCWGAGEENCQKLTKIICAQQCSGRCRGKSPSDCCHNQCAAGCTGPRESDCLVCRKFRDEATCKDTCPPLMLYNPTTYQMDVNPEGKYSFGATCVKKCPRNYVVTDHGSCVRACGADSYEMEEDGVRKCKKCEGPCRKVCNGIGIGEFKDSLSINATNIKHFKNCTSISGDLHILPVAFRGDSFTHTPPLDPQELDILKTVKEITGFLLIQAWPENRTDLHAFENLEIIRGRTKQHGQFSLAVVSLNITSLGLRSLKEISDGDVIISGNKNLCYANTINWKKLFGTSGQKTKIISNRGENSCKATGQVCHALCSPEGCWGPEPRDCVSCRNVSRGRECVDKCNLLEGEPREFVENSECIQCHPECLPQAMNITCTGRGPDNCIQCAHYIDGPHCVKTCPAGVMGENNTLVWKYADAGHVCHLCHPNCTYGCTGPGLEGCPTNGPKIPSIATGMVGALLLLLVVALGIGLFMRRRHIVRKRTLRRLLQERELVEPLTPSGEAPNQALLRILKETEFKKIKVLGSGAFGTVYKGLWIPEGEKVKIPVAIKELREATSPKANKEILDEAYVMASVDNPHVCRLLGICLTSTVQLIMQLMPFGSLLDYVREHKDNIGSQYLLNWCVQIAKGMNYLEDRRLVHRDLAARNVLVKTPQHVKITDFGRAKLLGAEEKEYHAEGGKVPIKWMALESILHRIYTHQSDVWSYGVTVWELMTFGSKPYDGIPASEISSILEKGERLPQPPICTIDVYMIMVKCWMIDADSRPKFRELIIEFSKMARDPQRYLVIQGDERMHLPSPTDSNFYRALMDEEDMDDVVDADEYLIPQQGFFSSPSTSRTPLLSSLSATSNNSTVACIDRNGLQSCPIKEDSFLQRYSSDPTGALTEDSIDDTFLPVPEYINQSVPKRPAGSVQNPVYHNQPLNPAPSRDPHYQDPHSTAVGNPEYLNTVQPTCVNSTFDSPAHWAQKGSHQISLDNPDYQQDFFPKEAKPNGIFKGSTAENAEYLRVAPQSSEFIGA
UniProt P00533, with tags, fused parts or gaps DEL746-750/C797S limits assumed: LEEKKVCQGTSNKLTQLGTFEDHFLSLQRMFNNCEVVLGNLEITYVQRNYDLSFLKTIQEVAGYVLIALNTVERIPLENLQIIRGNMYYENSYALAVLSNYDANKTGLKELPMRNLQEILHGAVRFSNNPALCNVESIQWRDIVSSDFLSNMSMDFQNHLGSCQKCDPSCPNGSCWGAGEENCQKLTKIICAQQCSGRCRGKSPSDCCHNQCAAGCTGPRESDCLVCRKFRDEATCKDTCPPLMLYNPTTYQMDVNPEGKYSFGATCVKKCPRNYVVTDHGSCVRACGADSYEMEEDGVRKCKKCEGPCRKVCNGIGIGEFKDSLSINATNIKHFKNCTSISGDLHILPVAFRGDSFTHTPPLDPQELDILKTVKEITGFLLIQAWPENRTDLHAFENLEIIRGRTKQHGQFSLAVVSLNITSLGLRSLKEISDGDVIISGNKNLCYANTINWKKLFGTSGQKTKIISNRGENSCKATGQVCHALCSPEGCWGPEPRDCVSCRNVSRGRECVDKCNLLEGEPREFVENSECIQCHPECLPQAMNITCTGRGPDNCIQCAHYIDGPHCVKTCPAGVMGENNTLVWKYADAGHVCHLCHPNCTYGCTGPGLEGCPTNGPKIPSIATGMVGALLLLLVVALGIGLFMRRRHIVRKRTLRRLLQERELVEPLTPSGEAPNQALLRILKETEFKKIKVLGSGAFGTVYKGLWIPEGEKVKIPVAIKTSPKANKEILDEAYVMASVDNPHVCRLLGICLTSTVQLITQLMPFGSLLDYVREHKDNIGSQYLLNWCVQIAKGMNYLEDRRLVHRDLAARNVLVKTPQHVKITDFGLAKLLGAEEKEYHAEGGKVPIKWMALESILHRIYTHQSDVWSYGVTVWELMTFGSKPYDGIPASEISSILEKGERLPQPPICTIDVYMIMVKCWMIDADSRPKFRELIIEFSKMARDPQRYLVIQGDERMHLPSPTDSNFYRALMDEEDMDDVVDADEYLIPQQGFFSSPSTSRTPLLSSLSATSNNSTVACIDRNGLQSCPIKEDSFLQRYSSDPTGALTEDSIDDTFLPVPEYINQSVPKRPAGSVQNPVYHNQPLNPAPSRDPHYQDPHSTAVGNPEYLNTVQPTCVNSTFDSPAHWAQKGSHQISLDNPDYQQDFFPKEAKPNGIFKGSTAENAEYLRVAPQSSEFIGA
UniProt P00533, with tags, fused parts or gaps DEL746-750/T790M/C797S limits assumed: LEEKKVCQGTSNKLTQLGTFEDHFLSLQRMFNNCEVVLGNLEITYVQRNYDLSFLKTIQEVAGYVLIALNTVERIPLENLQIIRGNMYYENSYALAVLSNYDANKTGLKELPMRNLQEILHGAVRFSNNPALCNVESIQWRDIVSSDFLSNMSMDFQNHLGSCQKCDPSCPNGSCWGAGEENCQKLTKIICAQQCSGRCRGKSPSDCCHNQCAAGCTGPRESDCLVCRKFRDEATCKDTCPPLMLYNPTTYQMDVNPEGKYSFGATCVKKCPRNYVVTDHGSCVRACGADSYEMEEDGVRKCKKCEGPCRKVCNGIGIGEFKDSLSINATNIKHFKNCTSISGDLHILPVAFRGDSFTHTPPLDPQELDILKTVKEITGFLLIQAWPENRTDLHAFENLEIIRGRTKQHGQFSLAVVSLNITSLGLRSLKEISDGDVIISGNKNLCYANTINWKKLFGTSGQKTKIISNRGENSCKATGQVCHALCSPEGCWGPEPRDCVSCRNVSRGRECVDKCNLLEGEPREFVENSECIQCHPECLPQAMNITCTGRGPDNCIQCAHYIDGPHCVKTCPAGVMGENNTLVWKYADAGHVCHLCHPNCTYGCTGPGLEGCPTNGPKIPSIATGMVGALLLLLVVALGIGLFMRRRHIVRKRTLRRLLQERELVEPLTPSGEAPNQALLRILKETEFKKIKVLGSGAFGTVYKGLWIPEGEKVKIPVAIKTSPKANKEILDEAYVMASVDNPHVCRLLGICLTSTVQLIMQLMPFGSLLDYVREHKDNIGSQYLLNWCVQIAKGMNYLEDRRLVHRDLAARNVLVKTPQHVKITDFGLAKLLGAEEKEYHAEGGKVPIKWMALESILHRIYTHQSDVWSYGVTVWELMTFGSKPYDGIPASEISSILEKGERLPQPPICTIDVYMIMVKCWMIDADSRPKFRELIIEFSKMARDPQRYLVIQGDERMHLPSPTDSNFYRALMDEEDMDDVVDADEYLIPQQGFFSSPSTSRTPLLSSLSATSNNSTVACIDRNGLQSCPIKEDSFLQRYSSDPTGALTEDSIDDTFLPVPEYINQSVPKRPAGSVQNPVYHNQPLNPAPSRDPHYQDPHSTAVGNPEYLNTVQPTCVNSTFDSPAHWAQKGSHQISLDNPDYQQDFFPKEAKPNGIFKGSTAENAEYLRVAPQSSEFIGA

Columns and labels:
[1] = target: EGFR WT (Homo sapiens, UniProt P00533); assay: Biochemical EGFR kinase assay (Lance Ultra TR-FRET), wildtype
[2] = target: EGFR D19TMCS (del19/T790M/C797S) (Homo sapiens, UniProt P00533, C797S/DEL746-750/T790M); assay: Biochemical EGFR kinase assay (Lance Ultra TR-FRET), triple mutant del19/T790M/C797S
[3] = target: EGFR LRCS (L858R/C797S) (Homo sapiens, UniProt P00533, C797S/L858R); assay: Biochemical EGFR kinase assay (Lance Ultra TR-FRET), double mutant L858R/C797S
[4] = target: EGFR D19CS (del19/C797S) (Homo sapiens, UniProt P00533, C797S/DEL746-750); assay: Biochemical EGFR kinase assay (Lance Ultra TR-FRET), double mutant del19/C797S
[5] = target: EGFR LRTMCS (L858R/T790M/C797S) (Homo sapiens, UniProt P00533, C797S/L858R/T790M); assay: Biochemical EGFR kinase assay (Lance Ultra TR-FRET), triple mutant L858R/T790M/C797S
[6] = read-out: EGFR WT IC50, ATP 1 mM
[7] = read-out: EGFR D19TMCS IC50, ATP 1 mM
[8] = read-out: EGFR D19TMCS IC50, ATP Km
[9] = read-out: EGFR LRCS IC50, ATP 1 mM
[10] = read-out: EGFR LRCS IC50, ATP Km
[11] = read-out: EGFR D19CS IC50, ATP 1 mM
[12] = read-out: EGFR D19CS IC50, ATP Km
[13] = read-out: EGFR LRTMCS IC50, ATP 1 mM
[14] = read-out: EGFR LRTMCS IC50, ATP Km
[15] = read-out: IC50, EGFR WT, 1 mM, ATP 1 mM, EGFR wildtype
[16] = read-out: IC50, EGFR WT, Km, ATP at Km, EGFR wildtype
[17] = read-out: IC50, EGFR D19TMCS, Km, ATP at Km, EGFR del19/T790M/C797S
[18] = read-out: IC50, EGFR-LRCS, 1 mM, ATP 1 mM, EGFR L858R/C797S
[19] = read-out: IC50, EGFR-LRCS, Km, ATP at Km, EGFR L858R/C797S
[20] = read-out: IC50, EGFR-D19CS, 1 mM, ATP 1 mM, EGFR del19/C797S
[21] = read-out: IC50, EGFR-D19CS, Km, ATP at Km, EGFR del19/C797S
[22] = read-out: IC50, EGFR LRTMCS, 1 mM, ATP 1 mM, EGFR L858R/T790M/C797S
[23] = read-out: IC50, EGFR LRTMCS, Km, ATP at Km, EGFR L858R/T790M/C797S

SMILES	IC50 [1, 6] [nM]	IC50 ([1]; read-out: EGFR WT IC50, ATP Km) [nM]	IC50 [2, 7] [nM]	IC50 [2, 8] [nM]	IC50 [3, 9] [nM]	IC50 [3, 10] [nM]	IC50 [4, 11] [nM]	IC50 [4, 12] [nM]	IC50 [5, 13] [nM]	IC50 [5, 14] [nM]	IC50 [1, 15] [nM]	IC50 [1, 16] [nM]	IC50 [2, 17] [nM]	IC50 [3, 18] [nM]	IC50 [3, 19] [nM]	IC50 [4, 20] [nM]	IC50 [4, 21] [nM]	IC50 [5, 22] [nM]	IC50 [5, 23] [nM]
C[C@@H]1CCOc2c(cnn2C)-c2nccc(n2)Nc2cc(c(-c3ccn(CC(F)(F)F)n3)cn2)N1	> 1000	> 1000	100 to 1000	10 to 100	> 1000	> 1000	> 1000	> 1000	> 1000	10 to 100	–	–	–	–	–	–	–	–	–
Cc1nn(C)c2c1-c1nccc(n1)Nc1cc(c(-c3ncc(CN4CCC[C@@H](O)C4)cc3F)cn1)N[C@@H](C)CCO2	–	–	–	–	–	–	–	–	–	–	> 1000	10 to 100	< 10	10 to 100	< 10	10 to 100	< 10	< 10	< 10
C[C@H]1CCOc2c(cnn2C)-c2nccc(n2)Nc2cc(c(-c3ccn(C(F)F)n3)nn2)N1	> 1000	> 1000	< 10	< 10	> 1000	100 to 1000	> 1000	> 1000	10 to 100	< 10	–	–	–	–	–	–	–	–	–
C[C@H]1CCOc2c(cnn2C)-c2nccc(n2)Nc2cc(c(-c3ncc(CN4CCN(C)CC4)cc3F)cn2)N1	> 1000	< 10	< 10	< 10	< 10	< 10	< 10	< 10	< 10	< 10	–	–	–	–	–	–	–	–	–
C[C@H]1CCOc2c(cnn2C)-c2nccc(n2)Nc2cc(c(-c3ncc(CN4CC5(C4)CC5(F)F)cc3F)cn2)N1	> 1000	10 to 100	< 10	< 10	100 to 1000	< 10	10 to 100	< 10	< 10	< 10	–	–	–	–	–	–	–	–	–

Other lines, results leading:

IC50 [1, 6] [nM]	IC50 ([1]; read-out: EGFR WT IC50, ATP Km) [nM]	IC50 [2, 7] [nM]	IC50 [2, 8] [nM]	IC50 [3, 9] [nM]	IC50 [3, 10] [nM]	IC50 [4, 11] [nM]	IC50 [4, 12] [nM]	IC50 [5, 13] [nM]	IC50 [5, 14] [nM]	IC50 [1, 15] [nM]	IC50 [1, 16] [nM]	IC50 [2, 17] [nM]	IC50 [3, 18] [nM]	IC50 [3, 19] [nM]	IC50 [4, 20] [nM]	IC50 [4, 21] [nM]	IC50 [5, 22] [nM]	IC50 [5, 23] [nM]	SMILES
–	–	–	–	–	–	–	–	–	–	> 1000	10 to 100	< 10	10 to 100	< 10	< 10	< 10	< 10	< 10	Cc1nn(C)c2c1-c1nccc(n1)Nc1cc(c(-c3ccc(C(C)(C)F)cn3)cn1)NCC[C@@H](C)O2
–	–	–	–	–	–	–	–	–	–	> 1000	10 to 100	< 10	10 to 100	< 10	10 to 100	< 10	< 10	< 10	Cc1nn(C)c2c1-c1nccc(n1)Nc1cc(c(-c3ncc(C(C)(C)O)cc3F)cn1)NCC[C@@H](C)O2
> 1000	10 to 100	< 10	< 10	100 to 1000	10 to 100	10 to 100	< 10	< 10	< 10	–	–	–	–	–	–	–	–	–	C[C@H]1CCOc2c(cnn2C)-c2nccc(n2)Nc2cc(c(-c3ccc(OC(F)F)cn3)cn2)N1
–	–	–	–	–	–	–	–	–	–	> 1000	10 to 100	< 10	10 to 100	< 10	10 to 100	< 10	< 10	< 10	Cc1nn(C)c2c1-c1nccc(n1)Nc1cc(c(-c3ccc(C(C)(C)F)cn3)cn1)NCC[C@H](C)O2
